Measurements: US6765010B2, “Compositions and methods for enhancing analgesic potency of tramadol and attenuating its adverse side effects” (Pain Therapeutics, Inc., priority 1999, dated 2004)

System: excitatory opioid receptors on DRG neurons
Assay: Blockade of opioid-induced excitatory APD prolongation in DRG neurons
Format: cell-based, mouse

## CO[C@]12CC[C@@]3(C[C@@H]1C(C)(C)O)[C@H]1Cc4ccc(O)c5c4[C@@]3(CCN1CC1CC1)[C@H]2O5
Higher (nM) concentration
  effect on morphine's APD effects: blocks both inhibitory as well as excitatory effects of morphine
Pretreatment at low (fM-pM) concentrations
  blockade of excitatory APD prolongation by bimodally-acting opioid agonists: remarkably effective in blocking excitatory APD-prolonging effects
